Experimental data as given in patent publication US8222244B2, “Staurosporine derivatives as inhibitors of FLT3 receptor tyrosine kinase activity” (Novartis AG, priority 2001, dated 2012).

Sequences of proteins named here, by UniProt entry; tags and fusion partners are left off. Residues count along the entry.
UniProt P36888, 563-993: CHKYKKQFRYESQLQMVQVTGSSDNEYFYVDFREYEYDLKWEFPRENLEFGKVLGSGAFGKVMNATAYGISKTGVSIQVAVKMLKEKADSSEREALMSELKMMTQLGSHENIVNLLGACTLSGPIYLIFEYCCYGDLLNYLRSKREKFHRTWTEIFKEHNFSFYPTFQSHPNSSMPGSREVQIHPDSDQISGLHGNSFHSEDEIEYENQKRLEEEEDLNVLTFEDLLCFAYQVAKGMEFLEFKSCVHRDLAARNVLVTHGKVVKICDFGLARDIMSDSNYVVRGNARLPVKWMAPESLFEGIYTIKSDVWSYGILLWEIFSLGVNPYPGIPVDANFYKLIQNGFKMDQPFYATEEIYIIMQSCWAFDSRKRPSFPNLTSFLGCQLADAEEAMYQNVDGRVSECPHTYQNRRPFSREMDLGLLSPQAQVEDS

Target: T1, human Flt-3 (Homo sapiens, UniProt P36888)
T1 construct: expresses the amino acid region amino acids 563-993 of the intra-cytoplasmic kinase domains of human Flt-3; made in house; host or cells: Sf9 insect cells (baculovirus, pFbacG01 donor vector)
Assay: Tyrosine protein kinase assay with purified GST-Flt-3 (33P incorporation)
Assay type: biochemical
Conditions: at a 1.0 micromolar concentration
Experimental: ATP into appropriate substrates.
The coding sequences for the cytoplasmic domain of Flt-3 was amplified by PCR from human c-DNA libraries (Clontech). The amplified DNA fragments and the pFbacG01 vector were made compatible for ligation by digestion with BamH1 and Hind III. […] The production of the viruses, the expression of proteins in Sf9 cells and the purification of the GST-fused proteins were performed as following:
(Generation of Bac- to Bac GST-fusion vectors); pFbacG01, pFbacGST2T and pFbacGSTx3 Bac-to-Bac™ donor vectors were generated from pAcG1, pAcG2T and pAcG3X respectively, which facilitate the expression of GST-fusion proteins with the possibility of cleavage with thrombin (pFbacGT2) or factor Xa (pFbacGSTx3) while pFbacG01 expresses no proteolytic cleavage site. These were generated in house by isolation of the DNA fragment containing the gene for GST with the C-terminal protease and restriction sites by restriction enzyme digestion of the relevant PharMingen baculovirus donor vector with EcoRV and EcoRI. […]
ATP 0.1 μCi). […] Membranes were counted after drying at ambient temperature, mounting in Packard TopCount 96-well frame, and addition of 10 μL/well of Microscint™ (Packard). […]

CN[C@@H]1C[C@H]2O[C@@](C)([C@@H]1OC)n1c3ccccc3c3c4c(c5c6ccccc6n2c5c31)C(=O)NC4 [62996-74-1, (9S,10R,11R,13R)-2,3,10,11,12,13-Hexahydro-10-methoxy-9-methyl-11-(methylamino)-9,13-epoxy-1H,9H-diindolo[1,2,3-gh:3′,2′,1′-lm]pyrrolo[3,4-j][1,7]benzodiazonin-1-one, reference compound]
Flt3 Inhibition (percent inhibition of Flt3 kinase activity): 100%
